Reference: patent publication US8058243B2, “Method for treating a brain cancer with ifenprodil” (HSC Research and Development Limited Partnership, priority 2006, dated 2011)

What follows are compounds tested on murine neural precursor cells (neurosphere cultures) (assay: HTS of LOPAC library against secondary neurosphere cultures, MTT proliferation assay at 3 μM, day 7 (z score, P value)). Conditions: not given.

Compound | Activity | Z score
O=C(O)C1CCCNC1 (racemic) [(±)-Nipecotic acid] | no | –
O=C(O)c1cc2cc(F)ccc2[nH]1 [5-Fluoroindole-2-carboxylic acid] | no | –
CC(=O)[C@H]1CC[C@H]2[C@@H]3CC[C@H]4C[C@H](O)CC[C@]4(C)[C@H]3C(=O)C[C@]12C [5alpha-Pregnan-3alpha-ol-11,20-dione] | no | –
N=C(N)SCCc1cnc[nH]1 [Imetit dihydrobromide] | no | –
CNCCC(Oc1ccccc1OC)c1ccccc1 (stereo not drawn) [Nisoxetine hydrochloride] | no | –
Nc1nc2ccc(OC(F)(F)F)cc2s1 [Riluzole] | no | –
(−)-Quinpirole hydrochloride | no | –
(−)-Scopolamine methyl nitrate | – | −0.4508

Same assay, conditions: LOPAC primary screen, neurosphere MTT proliferation, 3 μM, day 7

Compound | Z score
(−)-Scopolamine methyl nitrate | −0.451

Counter-ions that a name gives are not always drawn.
